Data published in patent US20250084183A1, “ENGINEERED COMPOSITIONS FOR BONE-TARGETED THERAPY” (William Marsh Rice University, priority 2021, published 2025).

Legend:
HA binding assay = details: for Percentage of the bound fraction: antibodies 1 mg/ml, 20 mg/ml hydroxyapatite, 37° C., 9 h, mean ± SEM
[1] = Binding to bone cryosections (FITC anti-human IgG / xylenol orange); design: species or system C57BL/6 mice; details: 50 μg/mL, overnight incubation; xylenol orange (XO) labels bone
Method: Binding to bone cryosections. […] After washing 3 times with PBS, specimens were incubated for 30 min at 37° C. with Xylenol Orange (XO) (stock: 2 mg/ml, dilute 1:500, dilute buffer: PBS pH 6.5). After three washes with PBS, specimens were stained with Hoechst 33342 (stock 10 mg/ml, dilute 1:2000) for 10 min. Slides were then washed with PBS, air dried, and sealed with PROLONG™ gold anti-fade mountant (from ThermoFisher).

MDA-MB-361 cells = assay: Primary tumor model, MDA-MB-361 in mammary fat pads; format: in vivo, nude mice; details: 1 mg/kg
[2] = system: MDA-MB-361 breast cancer cells; assay: MDA-MB-361 bone metastasis xenograft model (para-tibial injection); details: for increase in tumor size (BLI signal day 1 to 80): p<0.0001 Tras-CH1/CT vs Tras; for histological analysis of bone sections (H&E): FIG. 3L; for Survival, significance vs Control: endpoint BLI intensity over 10^7, log-rank test
SK-BR-3 cells = assay: In vitro cytotoxicity (MTT) against SK-BR-3; format: cell-based
Method: (§1) BT474, and MDA-MB-468 cells at 2×10^3 cells/well into 96-well plates. […] 20 AL of 3-(4,5-dimethylthiazol-2-yl)-2,5-diphenyltetrazolium bromide (MTT) solution (5 mg/mL) was then added to each well and incubated for another 4 h. Medium was aspirated and 150 AL DMSO was added to each well. The absorbance at 565 nm was measured by microplate reader (Infinite M Plex by Tecan) to quantify living cells.

[3] = system: HER2-negative MDA-MB-468 cells; assay: In vitro cytotoxicity (MTT) against MDA-MB-468; format: cell-based; details: same experimental conditions as SK-BR-3
Method: as §1

MDA-MB-468 (HER2−) cells = assay: Cell-surface binding to MDA-MB-468 cells (flow cytometry)
Method: (§2) Flow cytometry. […] After washing away unbound antibodies, bound antibodies were detected using Fluorescein (FITC) AffiniPure Goat Anti-Human IgG (H+L) (code: 109-095-003, Jackson Immunology) for 30 min at 4° C. Fluorescence intensity was determined using a BD FACSVerse (BD Biosciences).

SK-BR-3 (HER2+++) cells = assay: Cell-surface binding to SK-BR-3 cells (flow cytometry)
Method: as §2

[4] = Biodistribution of Cy7.5-labeled antibodies in mice bearing MDA-MB-361 tumors; format: in vivo, athymic nude mice; details: 72 h and 120 h after retro-orbital injection, sulfo-Cy7.5 label
Method: In vivo Distribution of Bone-Targeting Antibodies. […] 72 h and 120 h after antibody infusion, the major organs were collected and imaged for antibody distribution. […] Moreover, larger quantities of bone-targeting antibodies were present in tumor-bearing right leg bones compared to left healthy bone, likely due to L-Asp6 peptide-mediated targeting to the bone resorption niche. […] This effect has the potential to enhance antitumor activity at the tumor site, while at the same time decreasing systemic toxicity.
Biodistribution. Female athymic nude mice were injected para-tibia with MDA-MB-361 cells (2× 10^5 cells/animal). […] After 72 h and 120 h injection, the mice were imaged using IVIS. 72 h and 120 h injection, the mice were killed, and major organs including heart, liver, spleen, kidney, lung, and bone tumor tissue were removed. The fluorescence intensity in organs and tumor bearing tibiae were observed using IVIS.

[5] = system: MCF-7 breast cancer cells; assay: MCF-7 bone metastasis model
[6] = 1 mg/kg retro-orbital twice a week
[7] = TRAP-stained tibia sections, end of experiment, one-way ANOVA
[8] = end of experiment, one-way ANOVA
[9] = whole body BLI over the course of the experiment, two-way ANOVA
[10] = ADC, in vitro binding assay, FIG. 50
[11] = 1 mg/kg twice a week for two months

Substance: trastuzumab [reference compound]
- Percentage of the bound fraction (HA binding assay): 23.9 ± 4.7%
- affinity for HA (binding kinetics, FIG. 2D) (HA binding assay; trastuzumab series): only slight affinity for HA
- FITC signal on non-decalcified bone sections [1]: no fluorescence
- tumor growth in the mammary fat pads (MDA-MB-361 cells): significantly decreased the tumor growth
- prolongation of median mouse survival [2, 6]: 9.7 days
- tumor growth (BLI) [2, 6]: failed to control long-term tumor growth
- increase in tumor size (BLI signal day 1 to 80) ([2]; 1 mg/kg twice a week): 1562.7±801.6
- histological analysis of bone sections (H&E) [2]: invasion of tumor cells into the bone matrix and into the adjacent tissue
- Osteoclast number, significance vs Control [2, 7]: **** (**** P < 0.0001)
- Serum Calcium, significance vs Control [2, 8]: ns (ns represents P > 0.05)
- Serum TRACP 5b, significance vs Control [2, 8]: ns (ns represents P > 0.05)
- Survival, significance vs Control [2]: ns (ns represents P > 0.05)
- Trabecular bone parameters BMD, significance vs Control ([2]; microCT, one-way ANOVA, Tukey): ns (ns represents P > 0.05)
- Trabecular bone parameters BS/BV, significance vs Control ([2]; microCT, one-way ANOVA, Tukey): ns (ns represents P > 0.05)
- Trabecular bone parameters BV, significance vs Control ([2]; microCT, one-way ANOVA, Tukey): ns (ns represents P > 0.05)
- Trabecular bone parameters BV/TV, significance vs Control ([2]; microCT, one-way ANOVA, Tukey): ns (ns represents P > 0.05)
- Trabecular bone parameters Tb. Th, significance vs Control ([2]; microCT, one-way ANOVA, Tukey): ns (ns represents P > 0.05)
- micro CT: osteolytic bone destruction / bone loss ([2]; tibiae, day 81, 1 mg/kg): extensive osteolytic bone destructions
- BLI Progression, significance vs Control [2, 9]: ** (** P < 0.01)

Substance: Tras-MMAE [reference compound]
- EC50 (SK-BR-3 cells): 0.18 nM
- cytotoxicity against MDA-MB-468 cells [3]: no significant toxicity
- micro-CT: osteolytic bone destructions ([2]; ADC 0.5 mg/kg weekly): extensive osteolytic bone destructions

- Percentage of the bound fraction (HA binding assay): 59.7 ± 4.4%
Substance: Tras-LC/CT: trastuzumab with two L-Asp6 peptides, light chain and C-terminus; SEQ ID NOs: 11-12
- MFI increase (fold) (MDA-MB-468 (HER2−) cells; MDA-MB-468, Her2 expression 0, over PBS control): 1.16 fold
- MFI increase (fold) (SK-BR-3 (HER2+++) cells; SK-BR-3, Her2 expression 3+, over PBS control): 57.75 fold

Substance: Tras-CH1/CT-MMAE
- EC50 (SK-BR-3 cells): 0.49 ± 0.3 nM
- binding to HER2-negative MDA-MB-468 cells (MDA-MB-468 (HER2−) cells; [10]): but not
- FITC signal on non-decalcified bone sections [1]: correlated well with the XO signal
- cytotoxicity against MDA-MB-468 cells [3]: no significant toxicity
- binding to HER2-positive SK-BR-3 cells (SK-BR-3 (HER2+++) cells; [10]): high binding affinity
- metastatic growth in bone vs unmodified Tras-MMAE ([2]; ADC 0.5 mg/kg every week for two months): significant inhibition of metastatic growth in bone
- bone volume/tissue volume ratio (BV/TV) vs PBS- and Tras-MMAE-treated groups ([2]; ADC 0.5 mg/kg weekly): higher
- micro-CT: osteolytic bone destructions ([2]; ADC 0.5 mg/kg weekly): but not
- trabecular bone thickness (Tb.Th) vs PBS- and Tras-MMAE-treated groups ([2]; ADC 0.5 mg/kg weekly): thicker
- toxicity, body weight during treatment ([2]; ADC 0.5 mg/kg weekly, FIG. 37I): no apparent toxicity
- histology: intratibia tumor burden ([2]; ADC 0.5 mg/kg weekly, FIG. 55): reduction of intratibia tumor burden
- secondary metastases derived from bone lesions ([2]; ADC 0.5 mg/kg weekly, FIGS. 37K, 56): significantly reduced the frequency and size of secondary metastases
- anti-tumor activity ([2]; FIG. 35): better anti-tumor activity

Substance: Tras-CH1/CT: trastuzumab with two L-Asp6 peptides, heavy chain CH1 and C-terminus; SEQ ID NOs: 13-14
- Percentage of the bound fraction (HA binding assay): 81.1 ± 3.1%
- EC50 (SK-BR-3 cells): 13.1 ± 12.1 nM
- intensity of the interosseous fluorescence signal vs Tras injected mice [4]: stronger
- metastatic burden vs Tras-treated group [5, 11]: significant reduction in metastatic burden
- mouse survival vs Tras-treated group [5, 11]: increase of mouse survival
- weight change ([5]; FIG. 36E): did not alter additional weight change
- tumor growth in the mammary fat pads (MDA-MB-361 cells): significantly decreased the tumor growth
- tumor size, difference between Tras and Tras-CH1/CT treatments (MDA-MB-361 cells; FIG. 45C): no statistical differences in tumor size between two treatments
- delay in tumor growth [2, 6]: 35.8 days
- rate of survival ([2]; 1 mg/kg twice a week, FIG. 3D): 62.5%
- increase in tumor size (BLI signal day 1 to 80) ([2]; 1 mg/kg twice a week): 9.3±4.2
- tumor growth vs 10 mg/kg of Tras ([2]; 10 mg/kg every 2 weeks): statistically significant growth inhibition
- histological analysis of bone sections (H&E) [2]: reduced tumor growth and relatively normal bone morphology
- bone destruction by hypercalcemia and TRACP 5b protein levels in the serum ([2]; FIG. 33): better therapeutic effects; also recorded: lowest level of bone destruction
- number of HER2-positive cells in bone niches vs Tras treatment ([2]; HER2 staining): significantly reduced
- number of osteoclasts in bone niches vs Tras treatment ([2]; TRAP staining): significantly reduced
- Osteoclast number, significance vs Control [2, 7]: **** (**** P < 0.0001)
- Osteoclast number, significance vs Tras [2, 7]: *** (*** P < 0.001)
- Serum Calcium, significance vs Control [2, 8]: * (* P < 0.05)
- Serum Calcium, significance vs Tras [2, 8]: ns (ns represents P > 0.05)
- Serum TRACP 5b, significance vs Control [2, 8]: ** (** P < 0.01)
- Serum TRACP 5b, significance vs Tras [2, 8]: ns (ns represents P > 0.05)
- Survival, significance vs Control [2]: *** (*** P < 0.001)
- frequency of secondary metastasis ([2]; ex vivo BLI, 81 days after initiation of treatment): significantly reduced the frequency of secondary metastasis to the contralateral hind limb (left hindlimb bone), heart, and liver
- ex vivo BLI intensities / metastatic signals of secondary metastases ([2]; ex vivo BLI, day 81, vs unmodified Tras): the metastatic signals from the lung and liver were significantly decreased
- bone mineral density (BMD) vs PBS- and Tras-treated groups ([2]; micro-CT, day 81): greater
- bone volume (BV) vs PBS- and Tras-treated groups ([2]; micro-CT, day 81): greater
- trabecular bone thickness (Tb.Th) vs PBS- and Tras-treated groups ([2]; micro-CT, day 81): thicker
- Trabecular bone parameters BMD, significance vs Control ([2]; microCT, one-way ANOVA, Tukey): ** (**P < 0.001)
- Trabecular bone parameters BMD, significance vs Tras ([2]; microCT, one-way ANOVA, Tukey): *** (***P < 0.001)
- Trabecular bone parameters BS/BV, significance vs Control ([2]; microCT, one-way ANOVA, Tukey): ** (**P < 0.001)
- Trabecular bone parameters BS/BV, significance vs Tras ([2]; microCT, one-way ANOVA, Tukey): * (*P < 0.05)
- Trabecular bone parameters BV, significance vs Control ([2]; microCT, one-way ANOVA, Tukey): **** (****P < 0.0001)
- Trabecular bone parameters BV, significance vs Tras ([2]; microCT, one-way ANOVA, Tukey): *** (***P < 0.001)
- Trabecular bone parameters BV/TV, significance vs Control ([2]; microCT, one-way ANOVA, Tukey): ** (**P < 0.001)
- Trabecular bone parameters BV/TV, significance vs Tras ([2]; microCT, one-way ANOVA, Tukey): * (*P < 0.05)
- Trabecular bone parameters Tb. Th, significance vs Control ([2]; microCT, one-way ANOVA, Tukey): ** (**P < 0.001)
- Trabecular bone parameters Tb. Th, significance vs Tras ([2]; microCT, one-way ANOVA, Tukey): * (*P < 0.05)
- Survival, significance vs Tras ([2]; mouse, in vivo): * (key: **** P < 0.0001; *** P < 0.001; ** P < 0.01; * P < 0.05; ns represents P > 0.05)
- overall survival vs 10 mg/kg of Tras ([2]; mouse, in vivo): prolonged overall survival
- BLI Progression, significance vs Control [2, 9]: **** (**** P < 0.0001)
- BLI Progression, significance vs Tras [2, 9]: ** (** P < 0.01)

Entries after “also recorded” stand apart in the source; their conditions may differ. Each block holds one substance with its values, some of them ahead of it.
